The entries are a selection whose mix differs from that of the whole data set. The source made the active and inactive calls.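 How the source made its calls: active means mean inhibition of at least 50% with a set share of replicates also reaching that level; inconclusive means no clear call, values can overlap the other calls; inactive means the rest.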
experiment: inhibitors of CD40-induced NF-kB signaling, primary screen, BL2 cells, luciferase reporter, single point (AID 1053188); details: CD40L-induced, 4 h, at 10 µM, stronger effect = higher value;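 further: 0% = neutral control wells and 100% = IKK inhibitor VII at 50 µM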

| Structure (SMILES) | inhibition |
| --- | --- |
| COc1ccccc1-c1ccccn1.O=[N+]([O-])c1cc([N+](=O)[O-])c(O)c([N+](=O)[O-])c1 | inactive: -12.5% |
| CN1CCCCC1COC(=O)C1(O)c2ccccc2CCc2ccccc21 (stereo not drawn) | inactive: 2.43% |
| CP(=O)(Nc1cccc(Br)c1)Oc1ccccc1 (stereo not drawn) | inactive: 8.21% |
| O=[N+]([O-])c1cc([N+](=O)[O-])c(Nc2ccc(Cl)cc2)c([N+](=O)[O-])c1 | active: 89.2% |
| CN(C)C(=O)c1c([N+](=O)[O-])cc([N+](=O)[O-])cc1[N+](=O)[O-] | inactive: 30% |
| O=C(OCCCN1CCCC1)C(O)(c1ccccc1)C1CCCCC1 (stereo not drawn) | inactive: 17.2% |
| CP(=O)(OCCOc1ccccc1)OCCOc1ccccc1 | inactive: 8.99% |
| O=[N+]([O-])c1cc([N+](=O)[O-])c(Nc2ccccn2)c([N+](=O)[O-])c1 | inactive: -2.66% |

Reference: PubChem BioAssay AID1053188 (Broad Institute, 2014)
